Measured values as given in US6858227B1, “Vitamin E conjugates” (Sonus Pharmaceuticals, Inc., priority 2001, dated 2005).

Assay: Surface tension of 0.1 weight percent aqueous solution
Assay type: physicochemical
Conditions: 0.1 weight percent solution in water
Protocol: The conjugate is highly soluble (100 mg/ml) in water, dichloromethane, methanol, acetone, and pentane. An aqueous solution of the conjugate in water (50 mg/ml) has a pH of about 5. […] A 0.1 weight percent solution of the conjugate in water has a surface tension of about 29 dynes/cm (compare with 41 dynes/cm for a 0.1 weight percent aqueous solution of vitamin E succinate polyethylene glycol, TPGS).

For “vitamin E succinate polyethylene glycol [TPGS]”, which surface tension is on record?
The surface tension was 41 dynes/cm.
